The assay addresses T1, Cholesteryl ester transfer protein (Homo sapiens, UniProt P11597).
T1 sequence (P11597 whole entry): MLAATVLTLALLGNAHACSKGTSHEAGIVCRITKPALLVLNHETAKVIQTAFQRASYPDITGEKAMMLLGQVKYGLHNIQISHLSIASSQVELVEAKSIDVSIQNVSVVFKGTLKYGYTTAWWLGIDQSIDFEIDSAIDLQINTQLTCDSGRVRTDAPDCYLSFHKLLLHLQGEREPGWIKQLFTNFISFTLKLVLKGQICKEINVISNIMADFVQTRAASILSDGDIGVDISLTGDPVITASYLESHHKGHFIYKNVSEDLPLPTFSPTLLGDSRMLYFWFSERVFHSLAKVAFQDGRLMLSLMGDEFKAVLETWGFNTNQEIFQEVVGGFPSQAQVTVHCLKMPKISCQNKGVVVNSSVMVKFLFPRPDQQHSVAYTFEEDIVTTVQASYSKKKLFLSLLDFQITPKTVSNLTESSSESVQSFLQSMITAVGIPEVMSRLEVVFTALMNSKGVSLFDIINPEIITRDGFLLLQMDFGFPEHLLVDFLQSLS
Description: Inhibition of CETP.

The values below come from ChEMBL document CHEMBL1149646, “2D Quantitative structure-activity relationship studies on a series of cholesteryl ester transfer protein inhibitors” (Bioorg Med Chem, 2007).

In the case of `CCCOc1ccc(Oc2cccc(N(Cc3cccc(OC(F)(F)C(F)F)c3)CC(O)C(F)(F)F)c2)cc1` (configuration not stated), the IC50 (usually the concentration at which inhibition is half-maximal) came out at 80 nM. The figure for `OC(CN(Cc1cccc(OC(F)(F)C(F)F)c1)c1cccc(OCc2cccc(OC(F)(F)F)c2)c1)C(F)(F)F` (configuration not stated) is 300 nM.
